Test results: US6440996B1, “Monomeric and dimeric heterocycles, and therapeutic uses thereof” (priority 1998, dated 2002)

Amino acid sequences for entries named in this document (tags omitted). Residues count along the entry.
UniProt Q9WTR4, 1-597: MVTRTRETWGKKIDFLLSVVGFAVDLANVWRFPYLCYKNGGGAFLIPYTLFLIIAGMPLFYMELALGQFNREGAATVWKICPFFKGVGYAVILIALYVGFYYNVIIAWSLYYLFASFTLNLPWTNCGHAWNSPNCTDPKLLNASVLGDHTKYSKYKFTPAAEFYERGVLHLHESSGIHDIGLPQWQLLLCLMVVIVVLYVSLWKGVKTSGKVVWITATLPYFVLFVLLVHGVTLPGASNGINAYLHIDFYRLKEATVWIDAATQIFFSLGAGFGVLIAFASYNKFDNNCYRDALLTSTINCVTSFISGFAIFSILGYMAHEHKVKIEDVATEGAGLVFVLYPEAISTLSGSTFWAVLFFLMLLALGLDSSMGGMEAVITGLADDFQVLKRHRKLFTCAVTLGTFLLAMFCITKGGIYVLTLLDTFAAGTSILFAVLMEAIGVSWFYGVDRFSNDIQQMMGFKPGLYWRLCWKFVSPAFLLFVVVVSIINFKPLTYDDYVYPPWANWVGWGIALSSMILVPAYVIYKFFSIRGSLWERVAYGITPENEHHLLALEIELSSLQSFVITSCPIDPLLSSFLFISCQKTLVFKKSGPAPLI

Biological target: norepinephrine transporter (Rattus norvegicus, UniProt Q9WTR4)
Experiment: Norepinephrine transporter binding (NET)
Procedure: Determination of inhibitory binding potencies of analogues at dopamine, serotonin, and norepinephrine transporters are carried out using standard receptor binding assays which are known in the art.
C. Norepinephrine Transporter Binding (NET)
J. Med Chem., 36, 2886-2890.

## COC(=O)[C@H]1[C@@H](OC(=O)c2ccccc2)C[C@@H]2CC[C@H]1N2C [cocaine, reference compound]
  IC50: 4.43 µM
